# Experimental data taken from patent US10905750B2, “GRP78 antagonist that block binding of receptor tyrosine kinase orphan receptors as immunotherapy anticancer agents” (CREATIVE BIOTHERAPEUTICS, LLC, priority 2017, dated 2021).
# How the values were obtained:
# [1] = test system: U-118 MG glioblastoma cells; assay: WST-8 proliferation assay, U-118 MG (5 day); conditions: Homo sapiens, 120 h, read-out: Proliferation Inhibition (5 day) IC50, Brain Cancer U118
# [2] = test system: GRP78 treated dendritic cells; assay: Tolerogenic phenotype of GRP78 treated dendritic cells (flow cytometry, IL-10 ELISA); type: cell-based, human; conditions: dose dependent, in words
# Procedure: Consequently surface GRP78 binding on tumor cells leads to chemo-resistance and proliferation. […] Immature dendritic cells were differentiated from isolated CD14^+ myeloid cells with the addition of GM-CSF and IL-4 for 7 days. GRP78 (10 μg/ml) was added to the cells to produce a tolerogenic phenotype showing up regulation of PD-L1, B7H4, B7H3, IL-10 and down regulation of CD86. Therefore our GRP78 antagonists can potently block the activity of GRP78 on dendritic cells.
# FIG. 9A-9C illustrates increasing amounts of the GRP78 antagonists result in blocking GRP78 which reduces checkpoint protein expression on DCs. A tolerogenic dendritic cell phenotype is induced by soluble GRP78 binding. Myeloid CD14+ cells were co-stimulated for 7 days with IL-4, and GMCSF. On day 5 LPS along with or without GRP78 and GRP78 antagonists were added. On day 8, dendritic cells were fixed and stained for flow cytometry. The percent of B7H3, PD-L1, CD86 was measured by flowcytometry and compared to GRP78 untreated dendritic cells.
# To determine if GRP78 antagonists can block the tolerogenic phenotype of GRP78 treated dendritic cells, we differentiated immature dendritic cells. From 20 million human pooled PBMCs (AllCells), we isolated about 2.5 million CD14+ monocytes using positive selection with a pluribead CD14 kit (Pluriselect). […] Stained cells were analyzed byflow cytometry analysis. […]
IC50 [1] [nM],Molecule,activity for reversing the tolerogenic phenotype of dendritic cells induced by GRP78 [2]
705,COc1cccc2c1C(=O)c1c(O)c3c(c(O)c1C2=O)C[C@@](O)(C(=O)CO)C[C@@H]3O[C@H]1C[C@H](N)[C@H](O)[C@H](C)O1 [Doxorubicin],
,K5(3-89 Active Zone)frag-Fc SEQ ID NO:2: 3-89 portion of K5(1-91 Active Zone)frag bound to immunoglobulin via a peptide bond,potent nM activity
